US9447087B2, “Galactokinase inhibitors for the treatment and prevention of associated diseases and disorders” (UNIVERSITY OF UTAH RESEARCH FOUNDATION, priority 2011, dated 2016)

Sequences of proteins named here, by UniProt entry; tags and fusion partners are left off. A change or cut given only in a name is not applied to a line headed by its entry.
UniProt P51570: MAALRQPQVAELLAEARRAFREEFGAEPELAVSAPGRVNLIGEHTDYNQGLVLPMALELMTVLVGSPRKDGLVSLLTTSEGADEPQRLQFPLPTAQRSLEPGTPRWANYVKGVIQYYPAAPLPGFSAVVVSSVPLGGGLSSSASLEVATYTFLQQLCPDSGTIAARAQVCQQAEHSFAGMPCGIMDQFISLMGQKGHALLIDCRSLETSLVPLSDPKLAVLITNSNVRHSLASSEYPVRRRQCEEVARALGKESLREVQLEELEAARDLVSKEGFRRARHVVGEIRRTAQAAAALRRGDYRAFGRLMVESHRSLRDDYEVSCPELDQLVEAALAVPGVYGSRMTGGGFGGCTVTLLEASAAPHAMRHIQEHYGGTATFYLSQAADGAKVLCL

Target: GALK (Homo sapiens (Human), UniProt P51570)
Test: primary qHTS assay for inhibitors of GALK (KinaseGlo ATP depletion)
Assay type: biochemical
Details: 5 nM GALK, 35 μM ATP, 1 hr incubation
Experimental: Assay details and protocol: The primary assay monitored ATP depletion using Promega's KinaseGlo™ technology, where ATP levels are measured through luminescence generated from firefly luciferase, a bioluminescent ATP-dependent enzymes. […] This was used as the positive control for the assay. […]

For `O=C1CCCC2=C1C(c1cccnc1)N=C(Nc1nc3ccccc3o1)N2` (centres unmarked) [Compound 49], which IC50 is on record?
Its IC50 is 76.9 µM.

`CC1=C(C(=O)Nc2nccs2)C(c2ccccc2Br)N=C(Nc2nc3ccccc3o2)N1` (centres unmarked) [Compound 85] was tested. Which IC50 did it give?
The IC50 was 4.11 µM.

Which IC50 does the source give for `O=C1CCCC2=C1C1(CCCC1)N=C(Nc1nc3cc(-c4ccccc4)ccc3o1)N2` [Compound 25] here?
Its IC50 is 18.8 µM.

How did the IC50 turn out when `CC1=C(C(=O)Nc2ccc(C)cc2)C(c2ccccc2Br)N=C(Nc2nc3ccccc3o2)N1` (centres unmarked) [Compound 79] was run?
The IC50 was 4.11 µM.

How did the IC50 turn out when `COc1ccccc1NC(=O)C1=C(C)NC(Nc2nc3ccccc3o2)=NC1c1ccccc1Br` (centres unmarked) [Compound 80] was run?
Its IC50 is 3.66 µM.
